The source of these data is patent publication EP3939964B1, “COMBINATIONS FOR INHIBITING NHE-MEDIATED ANTIPORT IN THE TREATMENT OF DISORDERS ASSOCIATED WITH FLUID RETENTION OR SALT OVERLOAD AND GASTROINTESTINAL TRACT DISORDERS” (dated 2026).

Series [1] has as its system Normal female Sprague Dawley rats. Briefly: Pharmacodynamic model: effect of test compounds on fecal water content. Conditions: one way ANOVA with Dunnett post tests, control vs treated.
The subject of series [2] is rats. Briefly: Pharmacodynamic model: addition of a fluid absorbing polymer (1% Psyllium) to chow. The settings on record: with 1% Psyllium in diet; ability of test compound not impacted.
For another series, the system named is female wistar rats. As to the kind of experiment: Acute stress-induced visceral hypersensitivity (partial restraint stress, colorectal distension). The settings on record: oral 10 mg/kg, 1 h before CRD, at 45 and 60 mm Hg, p < 0.05, Figure 6.
Another series has as its system rat NHE-3. As to the kind of experiment: Cell-based assay of NHE-3 activity (pH sensitive dye method, BCECF). The settings on record: OK cells with rat NHE-3 gene; 0-30 uM test compound; 5 uM EIPA; average 3-6 replicates.
The subject of series [3] is rats. Briefly: Pharmacodynamic model: effect of test compounds on urinary sodium levels. The settings on record: increasing doses, corrected for sodium intake, Figures 3A and 3B.
Series [4] in a line: Determination of compound remaining in feces. The settings on record: oral 0.1 mg/kg, three rats.
The subject of series [5] is rats. Briefly: Pharmacodynamic model: dose dependent effect of test compound on fecal water content. The settings on record: increasing doses, Figure 4.

Turning to `CN1Cc2c(Cl)cc(Cl)cc2C(c2cccc(S(=O)(=O)NCCOCCOCCNC(=O)NCCCCNC(=O)NCCOCCOCCNS(=O)(=O)c3cccc(C4CN(C)Cc5c(Cl)cc(Cl)cc54)c3)c2)C1` (centres unmarked), the “Significant?” value in series [1] is reported as “Y (Results are significant if p < 0.05)”.

On to `CN1Cc2c(Cl)cc(Cl)cc2[C@H](c2cccc(S(=O)(=O)NCCOCCOCCOCCNC(=O)C(O)C(O)C(=O)NCCOCCOCCOCCNS(=O)(=O)c3cccc([C@@H]4CN(C)Cc5c(Cl)cc(Cl)cc54)c3)c2)C1` (single isomer, unassigned), for which, in the series with rats [2], the fecal water content entry is “increase fecal water content” and the urinary sodium entry is “decrease urinary sodium”. For the same molecule, the “visceral hypersensitivity to distension (number of abdominal contractions)” value in the series on female wistar rats was “reduces visceral hypersensitivity to distension”. Further, the “Significant?” value in series [1] is “Y (Results are significant if p < 0.05)”.

Regarding `CN1Cc2c(Cl)cc(Cl)cc2C(c2ccc(S(=O)(=O)NCCOCCOCCNC(=O)NCCCCNC(=O)NCCOCCOCCNS(=O)(=O)c3ccc(C4CN(C)Cc5c(Cl)cc(Cl)cc54)cc3)cc2)C1` (centres unmarked), in series [1], the “Significant?” value is recorded as “Y (Results are significant if p < 0.05)”.

“N1,N4-bis(2-(2-(2-(2-(4-(6,8-dichloro-2-methyl-1,2,3,4-tetrahydroisoquinolin-4-yl)phenylsulfonamido)ethoxy)ethoxy)ethoxy)ethyl)-2,3-dihydroxysuccinamide”: the “rat NHE-3 Average pIC50” value in the series with rat NHE-3 is more than 7.

Take `CN1Cc2c(Cl)cc(Cl)cc2[C@H](c2cccc(S(=O)(=O)NCCOCCOCCOCCNC(=O)NCCCCNC(=O)NCCOCCOCCOCCNS(=O)(=O)c3cccc([C@@H]4CN(C)Cc5c(Cl)cc(Cl)cc54)c3)c2)C1` (single isomer, unassigned): in the series on rats [3], the “amount of sodium excreted in the urine” value was “diminishes significantly and dose dependently”. The “Significant?” value in series [1] is given as “Y (Results are significant if p < 0.05)”.

With `CN1Cc2c(Cl)cc(Cl)cc2[C@H](c2ccc(S(=O)(=O)NCCOCCOCCOCCNC(=O)NCCOCCOCCOCCNS(=O)(=O)c3ccc([C@@H]4CN(C)Cc5c(Cl)cc(Cl)cc54)cc3)cc2)C1` (single isomer, unassigned), the “Significant?” value in series [1] is given as “Y (Results are significant if p < 0.05)”.

Turning to `CN1Cc2c(Cl)cc(Cl)cc2C(c2cccc(S(=O)(=O)NCCOCCOCCNC(=O)c3ccc(C(=O)NCCOCCOCCNS(=O)(=O)c4cccc(C5CN(C)Cc6c(Cl)cc(Cl)cc65)c4)cc3)c2)C1` (centres unmarked), the “Significant?” value in series [1] was “Y (Results are significant if p < 0.05)”.

Consider `CN1Cc2c(Cl)cc(Cl)cc2[C@H](c2cccc(S(=O)(=O)NCCOCCOCCNC(=O)NCCCCNC(=O)NCCOCCOCCNS(=O)(=O)c3cccc([C@@H]4CN(C)Cc5c(Cl)cc(Cl)cc54)c3)c2)C1.Cl.Cl` (single isomer, unassigned), for which the “recovery in 72-hour fecal samples (summary in words)” value in series [4] is recorded as “near quantitative recovery”. In series [1], the “Significant?” value is given as “Y (Results are significant if p < 0.05)”.

In the case of “N1,N4-bis(2-(2-(2-(2-(3-(6,8-dichloro-2-methyl-1,2,3,4-tetrahydroisoquinolin-4-yl)phenylsulfonamido)ethoxy)ethoxy)ethoxy)ethyl)-2,3-dihydroxysuccinamide”, the fecal water content entry in the series with rats [5] was “increased significantly and dose dependently”.
